## Ab-14 heavy chain CDR variants: yeast mating affinities

Data: MIT Lincoln Laboratory AlphaSeq set, Li et al. 2023, doi:10.1038/s41467-023-39022-2, as distributed in FLAb.

All variants were tested on one target, the spike HR2 peptide PDVDLGDISGINAS (SARS-CoV-2).

The variants keep the light chain, the linker and the frameworks of Ab-14 (scFv order VH, a (GGGGS)3 linker, VL).
VH: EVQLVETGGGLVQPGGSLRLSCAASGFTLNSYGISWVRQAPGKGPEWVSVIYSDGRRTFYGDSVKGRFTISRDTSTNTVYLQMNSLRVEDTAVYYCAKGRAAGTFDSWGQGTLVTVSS
VL: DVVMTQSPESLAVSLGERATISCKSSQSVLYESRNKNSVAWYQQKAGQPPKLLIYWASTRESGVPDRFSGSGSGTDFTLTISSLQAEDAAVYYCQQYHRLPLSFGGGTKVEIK

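The parent was found by panning a naive human phage display library on the peptide. This is the validation round: designs drawn from the data on random variants, tested in the same kind of assay. Group labels follow the data file (Ctrl: baseline library sampled from a position-specific scoring matrix, with some repeated check sequences; Rand: our label for a block that the file lists under HC and that is probably the random mutants of the ten best first-round binders; GP: Gaussian process model; GPLM: also part of the Gaussian process libraries; HC: hill climbing; Gen: genetic algorithm; Gibbs: Gibbs sampling; a sequence that several methods proposed may carry one label only). AlphaSeq pools MATa yeast showing the antibodies with MATalpha yeast showing the peptide. Binding brings cells together so that they mate, and sequencing counts the barcode pairs among the diploids. Read counts were normalised to the haploid input and turned into Kd by a linear fit to BCL2-family pairs of known affinity, for each replicate. Mating was done six times.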

The parent's heavy chain CDRs are GFTLNSYGIS, VIYSDGRRTFYGDSVK, GRAAGTFDS; each variant's own CDRs replace them letter for letter. Variants here have at most six changes. Kd is apparent (estimated from mating counts) and averaged on the log scale over replicates with a signal. Smaller is tighter. A pair that was not seen in any replicate is written "nd"; this usually means weak binding, but a binder can also be missed. A sequence measured in both rounds can read differently, since the two assays cover different ranges. The authors averaged sequences with at least three values out of six and counted those with two or fewer as poor binders. Background: pairings of all heavy chain designs with three empty control strains gave a value in 1% of cases (median 120 nM, 5th percentile 7.0 nM). Values in that range, when seen in few replicates, are hard to tell from nonspecific mating. Also given: how often the same scFv was detected with the empty control strains. Some sequences occur more than once in the pool; their replicates are pooled. Of ten entries with the parent sequence, four were seen in most replicates (averages 2.2 nM to 240 nM), three in one and three in none, so single entries are noisy.

Variant GFSLNEYGIS / VIYSDGRRTFYMDSVK / GRTAGTFWS [GP_Gibbs] showed nd (0 of 6 replicates; controls 0 of 18). Variant GFTLNEYGIS / VIYSDGRRTMYADSVK / GRCAGTFDS [GP_HC] gave 3.2 nM (2 of 6 replicates; controls 0 of 18). With GFSLNEYGIS / VIYSDGRRTFYVDSVK / GQAAGTFDT [GP_Gibbs] the result was 3.9 nM (6 of 6 replicates; controls 0 of 18). With GFDLNSYGIS / VIYSDGRRTFYIDSVK / GQAAGTFDV [GP_Gen] the result was 1.6 nM (6 of 6 replicates; controls 0 of 18). Variant GFTLNSYGIS / VIYSDGRRTFYGDSVK / GQAAGTFDM [Ctrl] showed 43 nM (3 of 6 replicates; controls 1 of 18).

Variant GFDLNSYGIS / VIYSDGRRTFYADSVK / GRAAGTFDQ [GPLM_Gen] showed 3.3 nM (5 of 6 replicates; controls 0 of 18). With GFDLNEYGIS / VIYSDGRRTFYGDSVK / GRAAVTFDQ [GPLM_HC] the result was 320 nM (2 of 6 replicates; controls 2 of 18). With GFDLNSYGIS / VIYSDGRRTWYGDSVK / GRQAGTFDS [GP_Gen] the result was 19 nM (5 of 6 replicates; controls 0 of 18). For GFELNEYGIS / VIYSDGRRTFYCDSVK / GRTAGTFDS [GP_Gen], the assay gave 34 nM (6 of 6 replicates; controls 1 of 18). Variant GFTLNSYGIS / VIYSDGRRTFYADSVK / GRASGTFDS [Ctrl] showed 74 nM (3 of 6 replicates; controls 1 of 18).

With GFTLNEYGIM / VIYSDGRRTFYGDSVK / GRAAGTFDS [Ctrl] the result was nd (0 of 6 replicates; controls 0 of 18). For GFTLNDYGIS / VIYSDGRRTFYIDSVK / GRVAGTFDS [GPLM_Gen], the assay gave 5.8 nM (6 of 6 replicates; controls 0 of 18). With GFTLNEYGIS / VIYSDGRRTFYQDSVK / GRFAGTFDD [GP_HC] the result was 7.6 nM (6 of 6 replicates; controls 0 of 18). Variant GFQLNSYGIS / VIYSDGRRTFYADSVK / GRTAGTFDS [GPLM_Gen] showed 3.2 nM (6 of 6 replicates; controls 1 of 18). With GFTLNEYGIS / VIYSDGRRTFYTDNVK / GRFAGTFDS [GPLM_HC] the result was 1.5 nM (6 of 6 replicates; controls 1 of 18).

Variant KFDLNSYGIS / VIYSDGRRTFYDDSVK / GQTAGTFDS [GP_HC] gave 15 nM (6 of 6 replicates; controls 2 of 18). Variant GFTLNSYGIS / VIYSDGRRTFYIDSVK / GRHAGTFDS [GP_HC] showed 170 nM (1 of 6 replicates; controls 0 of 18). For GFTLNQYGIS / VIYSDGRRTFYADSVK / GRAAGTFTS [GPLM_HC], the assay gave nd (0 of 6 replicates; controls 0 of 18). With QFTLNSYGIF / VIYSDGRRTFYDDSVK / GQLAGTFDS [Rand] the result was nd (0 of 6 replicates; controls 1 of 18). For GFTLNSYGIS / VIYADGRRTFYKDSVK / GKAAGVFDS [Ctrl], the assay gave 8.6 nM (3 of 6 replicates; controls 0 of 18).

With GFTLNSYGIS / VIYADGRRTFYGDNVK / GRAAGTFDS [Ctrl] the result was 3.4 nM (6 of 6 replicates; controls 0 of 18). Variant GFTLNSYGIS / VIYSDGRRTFYLDSVK / GRAQGTFDS [Ctrl] gave nd (0 of 6 replicates; controls 0 of 18). With GFTLNSYGIS / VIYSDGRRTFYGDSVR / GRNMGTFDS [Ctrl] the result was nd (0 of 6 replicates; controls 0 of 18). Variant GFTLNSYGIS / VIYSDGKRTIYGDSVK / GRHAGTMPS [Ctrl] gave 110 nM (1 of 6 replicates; controls 0 of 18). Variant GMTLNDYGIS / VIYSDGRRTQYIDSVK / GRAAGTFDS [GPLM_HC] gave 22 nM (6 of 6 replicates; controls 2 of 18).

For GFWLNEYGIS / VIYSDGRRTFYHDSVK / GRAAGTFDQ [GP_HC], the assay gave 25 nM (6 of 6 replicates; controls 0 of 18). Variant GFTLNDYGIS / VIYSDGRRTFYGDSVV / GIAAGTFES [Ctrl] showed nd (0 of 6 replicates; controls 0 of 18). With GFELNSYGIS / VIYSDGRRTFYADWVK / GRTAGTFDS [GP_Gen] the result was 13 nM (6 of 6 replicates; controls 0 of 18). Variant GFDLNSYGIS / VIYSDGRRTFYQDSVK / GRAAGHFDS [GP_HC] gave 530 nM (1 of 6 replicates; controls 0 of 18). Variant GFELNSYGIS / VIYSDGRRTFYTDSVK / GKAAGTFDS [GPLM_Gibbs] gave 4.3 nM (6 of 6 replicates; controls 0 of 18).

With GFSLNSYGIS / VIYSDGRRTFYGDSVK / GHAAGTFDD [GP_Gibbs] the result was 12 nM (5 of 6 replicates; controls 0 of 18). With GFELNMYGIS / VIYSDGRRTFYGDSVK / GQAAGTFDT [GP_Gen] the result was 5.9 nM (6 of 6 replicates; controls 0 of 18). Variant GFTLNEYGIS / VIYSDGHRTFYTDSVK / GRFAGTFDS [GPLM_HC] showed 41 pM (2 of 6 replicates; controls 0 of 18). Variant GFELNSYGIS / VIYSDGRRTFYGDSVK / GWVAGTFDS [GPLM_Gibbs] showed 17 nM (6 of 6 replicates; controls 0 of 18). For GFTLNSYGIS / VIYSDGRRTFYGDSVK / GRHAGVFDT [Ctrl], the assay gave 61 nM (1 of 6 replicates; controls 0 of 18).

Variant GFTLNSYGIS / VIYSDGRRTFYGDSVK / GNEAGTFDS [Ctrl+GPLM_Gibbs] gave 930 pM (12 of 12 replicates; controls 0 of 36). Variant GFTLNEYGII / VIYSDGRRCFYSDSVK / GRAGGTFDS [Rand] gave nd (0 of 6 replicates; controls 0 of 18). With GFSLNEYGIS / VIYSDGRRTFYTDSVK / GRTAGTFDS [GPLM_Gen] the result was 810 pM (6 of 6 replicates; controls 0 of 18). Variant GFTLNSYGIS / VIYSDGYRTAYADSVK / LRAAGTFDS [Ctrl] gave nd (0 of 6 replicates; controls 3 of 18). For GFTLNSYSSS / VIYSDGRRTFYGDSVV / GGAAGTFDS [Ctrl], the assay gave nd (0 of 6 replicates; controls 0 of 18).

For GFDLNSYGIS / VIYSDGRRTFYVDSVK / GNAAGTFDA [GP_Gen], the assay gave 10 nM (6 of 6 replicates; controls 1 of 18). With MFSLNSYGIS / VIYADGRRTFYGDSVK / GQAAGTFDS [GP_Gibbs] the result was nd (0 of 6 replicates; controls 0 of 18). For GFSLNNYGIS / VIYSDGRRTFYGDTVK / GRTAGTFDS [GPLM_Gen], the assay gave 6.6 nM (6 of 6 replicates; controls 1 of 18).

Repeated from above, the 7 best binders with a signal in all replicates:

| CDR-H1 | CDR-H2 | CDR-H3 | group | apparent Kd | replicates with signal | empty controls |
|---|---|---|---|---|---|---|
| GFSLNEYGIS | VIYSDGRRTFYTDSVK | GRTAGTFDS | GPLM_Gen | 810 pM | 6 of 6 | 0 of 18 |
| GFTLNSYGIS | VIYSDGRRTFYGDSVK | GNEAGTFDS | Ctrl+GPLM_Gibbs | 930 pM | 12 of 12 | 0 of 36 |
| GFTLNEYGIS | VIYSDGRRTFYTDNVK | GRFAGTFDS | GPLM_HC | 1.5 nM | 6 of 6 | 1 of 18 |
| GFDLNSYGIS | VIYSDGRRTFYIDSVK | GQAAGTFDV | GP_Gen | 1.6 nM | 6 of 6 | 0 of 18 |
| GFQLNSYGIS | VIYSDGRRTFYADSVK | GRTAGTFDS | GPLM_Gen | 3.2 nM | 6 of 6 | 1 of 18 |
| GFTLNSYGIS | VIYADGRRTFYGDNVK | GRAAGTFDS | Ctrl | 3.4 nM | 6 of 6 | 0 of 18 |
| GFSLNEYGIS | VIYSDGRRTFYVDSVK | GQAAGTFDT | GP_Gibbs | 3.9 nM | 6 of 6 | 0 of 18 |